Entries after “also recorded” stand apart in the source; their conditions may differ.
Experiments:
SERT [1] = target: T1, SERT (Rattus norvegicus, UniProt P31652); details: 2 mg/kg i.v. 5 min prior to tracer; 60 min post-injection
Description: At 60 min post i.v. injection, the animals were sacrificed by cardiac excision while under ether anesthesia. The brains were rapidly removed, placed in embedding medium (Tissue Tek, Miles Laboratory, Elkhart, Ind.) and frozen with powdered dry ice. After reaching equilibrium at −20° C. consecutive 20 μm coronal sections were cut on a cryostat microtome (Hacker Instruments, Fairfield, N.J.) thaw-mounted on microscope slides, and air-dried at room temperature. […] The microscale standards were calibrated with tissue mash standards for the value conversion to nCi/mg protein. The exposed film was developed by a Kodak automatic film processor. […] The brain sections of the pretreated rats were processed following the same procedures described above for the normal untreated rats.

Protein sequences, listed by entry. Tags and fused reporters are not part of them.
UniProt P31652, whole entry: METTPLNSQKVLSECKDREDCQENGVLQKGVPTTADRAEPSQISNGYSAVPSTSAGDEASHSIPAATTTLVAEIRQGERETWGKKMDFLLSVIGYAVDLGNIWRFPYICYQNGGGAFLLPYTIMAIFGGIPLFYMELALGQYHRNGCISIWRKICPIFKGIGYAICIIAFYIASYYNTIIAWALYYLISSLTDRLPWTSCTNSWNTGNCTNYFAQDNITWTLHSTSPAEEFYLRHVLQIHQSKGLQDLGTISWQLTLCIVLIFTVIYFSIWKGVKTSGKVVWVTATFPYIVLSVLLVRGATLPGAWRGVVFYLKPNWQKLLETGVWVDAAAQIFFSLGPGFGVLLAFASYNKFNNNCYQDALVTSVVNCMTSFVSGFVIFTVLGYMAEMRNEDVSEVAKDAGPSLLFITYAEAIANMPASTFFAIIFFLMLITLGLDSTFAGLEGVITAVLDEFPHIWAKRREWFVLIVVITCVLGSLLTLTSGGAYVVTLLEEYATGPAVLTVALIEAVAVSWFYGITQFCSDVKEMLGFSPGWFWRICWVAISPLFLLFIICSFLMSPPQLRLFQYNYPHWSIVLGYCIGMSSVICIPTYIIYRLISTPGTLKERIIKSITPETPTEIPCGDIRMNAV

SERT [2] = target: T1, SERT; assay: Competition binding with [125I]IDAM in rat frontal cortical homogenate; design: The frontal cortex of rat brain were dissected and homogenized in 30 volumes of buffer; from tissue; host or cells: rat frontal cortex membrane homogenates (male Sprague-Dawley rats, control and PCA-lesioned); details: for Ki for inhibition of [125I]IDAM binding: 0.2 nM [125I]IDAM, rat frontal cortical homogenate
Description: The homogenates were centrifuged at 20,000 g for 20 min. The resulting pellets were then re-suspended and recentrifuged. The final pellets were suspended in the same buffer and used for in vitro binding assays.
Various inhibitors were serially diluted with the buffer containing 0.1% BSA to overcome the stickiness and loss due to dilution. […] Incubation was carried out for 60 min at room temperature and then terminated by separation of bound from free radioligand by filtration through glass fiber filters (Schleicher & Schuell No. 25, Keene, N.H.) presoaked with 1% polyethylenimine. The filters were then washed three times with 3 ml of ice-cold […] Tris buffer and counted in a gamma counter (Packard 5000) with 70% efficiency. To study the effect of […], the homogenates were prepared in a sodium-free 50 mM Tris-HCl/5 mM KCl buffer.

SERT [3] = target: T1, SERT; assay: In vivo competitive binding: drug pretreatment before [125I]IDAM; details: 2 mg/kg i.v. 5 min prior to tracer; 60 min after tracer
Description: Experiments were performed using groups of 3-4 animals per study. […] The reduction of regional specific binding in the drug-pretreated rats was compared to the control animals with saline pretreatment.

SMILES	effect of pretreatment on [125I]IDAM autoradiograms (SERT [1])	Ki (SERT [2]) [nM]	Ki for inhibition of [125I]IDAM binding (SERT [2])	effect of pretreatment on specific binding of [125I]IDAM in rat brain regions (SERT [3])
CNCCC(Oc1ccccc1OC)c1ccccc1 (centres unmarked) [nisoxetine]	no statistically significant difference	20.2	much less potent	no significant inhibition
Fc1ccc([C@@H]2CCNC[C@H]2COc2ccc3c(c2)OCO3)cc1 [Paroxetine, paroxetine]	significantly reduced	< 0.1	low nanomolar range	dramatically reduced; also recorded: blocked

Source: US6921840B1 (The Trustees of the University of Pennsylvania, priority 1999, dated 2005)
